This assay concerns the target human RIP1 kinase (Homo sapiens (Human), UniProt Q13546). Put plainly: Inhibitory activity on RIP1 kinase (ADP-Glo). The format is biochemical. As to conditions: read-out: IC50, inhibitory activity on RIP1 kinase, human RIP kinase 25 nM.

By UniProt entry, the sequences of proteins in these tests, tags left out.
UniProt Q13546, whole entry: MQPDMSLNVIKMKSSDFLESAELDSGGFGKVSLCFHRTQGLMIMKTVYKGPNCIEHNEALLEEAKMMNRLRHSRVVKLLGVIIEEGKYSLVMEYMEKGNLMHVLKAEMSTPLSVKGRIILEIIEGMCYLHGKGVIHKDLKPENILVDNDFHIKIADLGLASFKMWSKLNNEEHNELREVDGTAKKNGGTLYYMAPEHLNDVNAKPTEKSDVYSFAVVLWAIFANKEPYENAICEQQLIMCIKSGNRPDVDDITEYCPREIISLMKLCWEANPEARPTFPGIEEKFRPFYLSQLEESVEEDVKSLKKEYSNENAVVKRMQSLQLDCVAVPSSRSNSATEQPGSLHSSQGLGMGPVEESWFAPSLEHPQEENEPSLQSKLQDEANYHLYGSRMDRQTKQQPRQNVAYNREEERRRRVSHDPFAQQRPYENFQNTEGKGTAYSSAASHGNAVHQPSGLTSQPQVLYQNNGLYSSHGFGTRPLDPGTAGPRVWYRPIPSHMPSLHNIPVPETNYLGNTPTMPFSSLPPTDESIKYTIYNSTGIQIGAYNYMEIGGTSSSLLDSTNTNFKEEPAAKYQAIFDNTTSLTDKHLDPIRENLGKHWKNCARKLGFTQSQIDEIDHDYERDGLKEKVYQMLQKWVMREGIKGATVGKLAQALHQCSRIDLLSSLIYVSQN

Each structure is given as a SMILES string. pIC50: −log10 of the molar value.

Turning to `[2H]C([2H])([2H])N1C(=O)[C@@H](NC(=O)c2ncn(Cc3ccccc3)n2)[C@@H](C)Oc2ccc(C#CCN3CCN(CC#Cc4ccc5c(c4)N(C([2H])([2H])[2H])C(=O)[C@@H](NC(=O)c4ncn(Cc6ccccc6)n4)[C@@H](C)O5)CC3)cc21`, the pIC50 was 8.36. The value for `C[C@H]1Oc2ccc(C#CCN3CCN(CC#Cc4ccc5c(c4)N(C)C(=O)[C@@H](NC(=O)c4ncn(Cc6ccccc6)n4)CO5)CC3)cc2N(C)C(=O)[C@H]1NC(=O)c1ncn(Cc2ccccc2)n1` was 8.33.

The record behind these values is patent US20240270732A1, “RECEPTOR-INTERACTING PROTEIN INHIBITOR, PREPARATION METHOD THEREFOR, AND USE THEREOF” (CHENGDU BIOBEL BIOTECHNOLOGY CO., LTD, priority 2021, published 2024).
